Molecular target: T1, serotonin transporter (Rattus norvegicus, UniProt P31652)
T1 construct: frontal cortical membranes prepared from male Sprague-Dawley rats; from tissue; host or cells: frontal cortical membranes of male Sprague-Dawley rats
Test: 3H-paroxetine binding to serotonin transporter in rat frontal cortical membranes
Design: species or system male Sprague-Dawley rats

Chains of the proteins cited; added tags and fusions are not shown.
UniProt P31652, whole entry: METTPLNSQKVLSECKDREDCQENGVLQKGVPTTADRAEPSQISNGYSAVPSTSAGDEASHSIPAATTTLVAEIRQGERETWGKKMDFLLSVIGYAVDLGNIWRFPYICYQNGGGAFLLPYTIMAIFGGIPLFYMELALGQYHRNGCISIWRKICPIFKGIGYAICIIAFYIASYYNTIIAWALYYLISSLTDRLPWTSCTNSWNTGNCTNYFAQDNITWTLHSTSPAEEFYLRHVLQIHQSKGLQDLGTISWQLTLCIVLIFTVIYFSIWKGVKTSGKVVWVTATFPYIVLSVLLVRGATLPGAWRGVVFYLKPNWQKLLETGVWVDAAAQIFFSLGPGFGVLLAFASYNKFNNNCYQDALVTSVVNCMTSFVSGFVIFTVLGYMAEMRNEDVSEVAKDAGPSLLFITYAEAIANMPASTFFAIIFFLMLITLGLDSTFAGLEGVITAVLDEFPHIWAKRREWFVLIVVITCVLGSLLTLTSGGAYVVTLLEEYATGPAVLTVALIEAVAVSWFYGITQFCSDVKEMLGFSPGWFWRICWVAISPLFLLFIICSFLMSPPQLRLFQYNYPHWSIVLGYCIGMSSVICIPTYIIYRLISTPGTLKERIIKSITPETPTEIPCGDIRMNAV

Fc1ccc2[nH]cc(CCCNCC3CN(Cc4ccccc4)c4ccccc4O3)c2c1 (stereo not shown) [Example 6]
Ki: 0.023 µM

From patent US6313114A, “3,4-Dihydro-2H-benzo[1,4]oxazinyl-methyl)-[3-(1H-indol-3yl)-alkyl]- amines” (American Home Products Corp, priority 1999, dated 2001)
